According to US10261017B2, “Methods for detecting and categorizing skin sensitizers” (University of Mississippi, priority 2014, dated 2019):

Legend:
thiol peptide = conditions: reported results from the literature; cited from earlier work
[1] = pH 10

SMILES: CCCCBr [1-Bromobutane]
- Cys-DPRA % Pept. remain. (thiol peptide): 86.2%
- DCYA 100-RI [1]: 100.0
